Ab-14 light chain CDR variants: yeast mating affinities

From the AlphaSeq antibody data of Li et al. 2023 (doi:10.1038/s41467-023-39022-2), copy in the FLAb collection.

All variants were tested on one target, the spike HR2 peptide PDVDLGDISGINAS (SARS-CoV-2).

Parent: Ab-14, a human scFv built as VH, a (GGGGS)3 linker, VL. Only the CDRs of the light chain vary.
VH: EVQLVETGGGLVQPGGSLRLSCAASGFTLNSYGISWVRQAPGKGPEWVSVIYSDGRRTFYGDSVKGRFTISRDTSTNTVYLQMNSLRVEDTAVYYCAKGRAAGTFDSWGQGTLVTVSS
VL: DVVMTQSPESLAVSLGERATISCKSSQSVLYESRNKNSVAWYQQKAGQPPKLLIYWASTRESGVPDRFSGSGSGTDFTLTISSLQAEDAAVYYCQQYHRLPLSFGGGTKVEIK

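The starting antibody came from a phage panning campaign against this peptide. These sequences belong to a second round, designed from the earlier measurements on random variants of the parent. Several design methods are mixed in this list. AlphaSeq pools MATa yeast showing the antibodies with MATalpha yeast showing the peptide. The frequency of each diploid, read from paired DNA barcodes, reflects how well the two displayed proteins bind. The ratio of observed to expected reads was calibrated, replicate by replicate, on BCL2-family standards whose Kd was known from biolayer interferometry. The assay was run in six technical replicates.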

Variants are written as CDR1, CDR2 and CDR3 of the light chain (limits as in the source). Parent: KSSQSVLYESRNKNSVA, WASTRES, QQYHRLPLS.
This list holds designs with at most six substitutions.
Each Kd is an estimate from the mating assay, the geometric mean of the replicates in which the pair was seen; lower is stronger.
"nd" marks a missing value. The strain was present, yet no cells mated with the target were sequenced in any replicate, which points to weak or no binding.
Background: pairings of all light chain designs with three empty control strains gave a value in 4% of cases (median 430 nM, 5th percentile 38 nM). Values in that range, when seen in few replicates, are hard to tell from nonspecific mating.

- KVSQSVLYEQRNKNSVA | NASTRLS | QQYHRLPLS: 1.7 nM (6 of 6 replicates)
- KSSQEVSYESRNKNSVA | DASTRES | QQYHRLPLS: 3.2 nM (6 of 6 replicates)
- KSSQSVEEESRNKNSVA | SASTRES | QQYHRLPLF: 3.3 nM (6 of 6 replicates)
- KSSQSVLYESRNKNSVA | SASTRES | QCYHVLPLS: 410 nM (6 of 6 replicates)
- KLQQSMLYESRNKNSVA | NASTRMS | QQYHRLPLS: 560 pM (6 of 6 replicates)
- KSSQSVLYESTNKQSVA | HASTRES | QQYHRLPTS: 310 nM (2 of 6 replicates)
- KYSQSVLYESRNKNSVA | WASTRES | QQYFRLPLS: 290 nM (2 of 6 replicates)
- KSSQNVLYESRNRNSVA | WASTRES | QQYHRLDLS: nd (0 of 6 replicates)
- KSSQSVGYESRNKNSVA | AASTRES | QQYHRLPLS: 19 nM (6 of 6 replicates)
- KVSQSELYESRNKNSVA | EASTRCS | QQYHRLPLS: 1.0 nM (6 of 6 replicates)
- KISQSVLYESRNQNSVA | WASTRIS | QQYHMLPLS: 13 nM (6 of 6 replicates)
- KSSQSVLYESTAVNSVA | DASTRES | QQYSRLPLS: 9.0 nM (6 of 6 replicates)
- KQSQSVLYESRNKNSVA | EASTRES | QQYHRLPLS: 5.5 nM (5 of 6 replicates)
- KLSQSQLYESRVKNSVA | NASTRES | QQYHRLPLS: 640 pM (6 of 6 replicates)
- KSSQSVLYESFNKNSVA | TRSTRES | QQYHRLPLS: nd (0 of 6 replicates)
- KSSQSVAYESRNVNSVA | WASTRVS | QQYHRLPTS: nd (0 of 6 replicates)
- KVSMSWLYESRNKNSVA | NASTRES | QQYHRLPLS: 1.5 nM (6 of 6 replicates)
- KLSPSVLYESHNKNSVA | NASTRMS | QQYHRLPLS: 1.8 nM (6 of 6 replicates)
- KSSQSVPGEQRNKNSVA | DASTRES | QQYHRLPLS: 1.9 nM (6 of 6 replicates)
- KLMQSGLYESRNKNSVA | NASQRES | QQYHRLPLS: 360 pM (6 of 6 replicates)
- KFSQWWLYESRTKNSVA | NASTRES | QQYHRLPLS: 2.9 nM (6 of 6 replicates)
- KVQQGVWYESRNKNSVA | WASTREV | QQYHRLPLS: 13 nM (6 of 6 replicates)
- KVSQSVLYQSRNKNSVA | NASTRES | QQYHRLPLS: 1.1 nM (6 of 6 replicates)
- KMSQSWLYESRNKNSVA | NASQRMS | QQYHRLPLS: 780 pM (6 of 6 replicates)
- KMSQSWLYESRNKNNVA | NASTRES | QQYHRLPLS: 450 pM (6 of 6 replicates)
- KVSFSYLMESRNKNSVA | EASTRES | QQYHRLPLS: 510 pM (6 of 6 replicates)
- VLQQSVLPESRNKNSVA | EASTRLS | QQYHRLPLS: 4.5 nM (6 of 6 replicates)
- KLSQSDLYESRNKNSVA | NASYRES | QQYHRLPLS: 1.4 nM (6 of 6 replicates)
- KLQQSWLYESRNKNSVA | NASQREQ | QQYHRLPLS: 560 pM (6 of 6 replicates)
- KLSQSVLYESRMKNNVA | HASTRES | QQYHRLPLS: 2.4 nM (6 of 6 replicates)
- KLSQSVEYESRNKNSVA | NASTRMS | QQYHRLPLS: 710 pM (6 of 6 replicates)
- KSSQSVLYESRNKNSVA | RATTRES | QQYHRLPLS: 39 nM (6 of 6 replicates)
- KYSQSVLYESRNKNSVA | EASTRES | QQYHRLPLS: 1.9 nM (12 of 12 replicates)
- KLSQSCLYESRNKNSVA | NASTRLS | QQYHRLPLS: 1.3 nM (6 of 6 replicates)
- KSSQSVLTESRNKNSVA | MESTRES | QQYHRLPLS: 61 nM (4 of 6 replicates)
- KSLQQWLYESRNKNSVA | HASTREQ | QQYHRLPLS: 3.3 nM (6 of 6 replicates)
- ASSQSVMGEERNKNSVA | AASTREV | QQYHRLPLS: 1.8 nM (6 of 6 replicates)
- KYSQSFLYESRNKNSVA | GASTRES | QNYHRLPLS: 1.0 nM (6 of 6 replicates)
- KLSQSVMYESRNKNSVA | EASTRMS | QQYHRLPLS: 840 pM (6 of 6 replicates)
- KLSQSVLYESRWKNSVA | WASTRES | QQYHRLPLS: 8.6 nM (6 of 6 replicates)
- KSSQSVLYESRNKNSVA | FASTRES | QQYHRLPLS: 190 nM (4 of 6 replicates)
- HLSWVTLYESRNKNSVA | NASTRES | QQYHRLPLS: 540 pM (6 of 6 replicates)
- KCSSSVLFQSRNKNSVA | DASTRES | QQYHRLPLS: 620 pM (6 of 6 replicates)
- KSSPSFLYESRNKNSVA | EASTRES | QQYHRLPLS: 1.2 nM (6 of 6 replicates)
- KLSQSVLYESRNKNSVA | NASTRES | QQYHRLPLM: 520 pM (6 of 6 replicates)
- KFSQSVLYESRNKNSVA | EASTREV | QQYHRLPLS: 570 pM (6 of 6 replicates)
- KLSQSQLYESRNKNSVA | HASQRES | QQYHRLPLS: 650 pM (6 of 6 replicates)
- KSSNSWLYESRNKNSVA | WASTRES | QQYHRLPLS: 3.4 nM (6 of 6 replicates)
- KSQQSVLYESRNKNSVA | GASTRES | QQYHRLPLS: 6.2 nM (6 of 6 replicates)
- HSSPSVEYESRNKNSVA | NASSRES | QQYHRLPLS: 3.9 nM (6 of 6 replicates)
- KQSQSVLQESRNCNSVA | DASTRES | QQYVRLPLS: 1.4 nM (6 of 6 replicates)
- KCSQSELFESRNKNSVA | DASTRES | QQYHRLPLS: 390 pM (6 of 6 replicates)

Top 8 of the variants detected in all replicates, tightest first:

* KLMQSGLYESRNKNSVA | NASQRES | QQYHRLPLS -> 360 pM (6 of 6 replicates)
* KCSQSELFESRNKNSVA | DASTRES | QQYHRLPLS -> 390 pM (6 of 6 replicates)
* KMSQSWLYESRNKNNVA | NASTRES | QQYHRLPLS -> 450 pM (6 of 6 replicates)
* KVSFSYLMESRNKNSVA | EASTRES | QQYHRLPLS -> 510 pM (6 of 6 replicates)
* KLSQSVLYESRNKNSVA | NASTRES | QQYHRLPLM -> 520 pM (6 of 6 replicates)
* HLSWVTLYESRNKNSVA | NASTRES | QQYHRLPLS -> 540 pM (6 of 6 replicates)
* KLQQSWLYESRNKNSVA | NASQREQ | QQYHRLPLS -> 560 pM (6 of 6 replicates)
* KLQQSMLYESRNKNSVA | NASTRMS | QQYHRLPLS -> 560 pM (6 of 6 replicates)

Of ten entries with the parent sequence, four were seen in most replicates (averages 2.2 nM to 240 nM), three in one and three in none, so single entries are noisy.
Some sequences occur more than once in the pool; their replicates are pooled.
In the paper, a design with two or fewer of six values counts as a poor binder.
Values of this round are not directly comparable with the first-round values of the same sequences.